System: normal human skin fibroblasts
Assay: Quantitative assay of insoluble elastin ([3H]-valine metabolic labeling) in fibroblast cultures
Assay type: cell-based

## CNC(=S)NC [DMTU, dimethylthiourea]
200 μM iron in the presence of DMTU
  increase in elastin production as compared to cultures treated with 200 μM iron alone: ~2 fold
200 μM iron treatment with DMTU
  increase in elastin deposition over untreated control: ~2 fold
Antioxidant applied with 200 μM of iron
  reversal of the inhibitory effect of 200 μM iron treatment on elastin deposition: reversed the inhibitory effect

Source: patent US9006170B2, “Compositions for elastogenesis and connective tissue treatment” (Human Matrix Sciences, LLC, priority 2004, dated 2015)
